Assay outcomes deposited in PubChem BioAssay by National Center for Advancing Translational Sciences (NCATS).
Compounds with a hit are over-represented: about 1.3% of the library has one in this group of screens.
PTHR1 ag = activates the human parathyroid hormone receptor PTHR1; Q03431; HEK293 GP2 PTHR1 cells, GloSensor cAMP luminescence, 1 h; Potency, µM (titrated, usually from 115 µM), without a hit: at the highest dose activation, hits mostly activators; 410,000 compounds, 0.075% hits; AID 743266; note: potency is the fitted concentration of half-maximal effect; nearly all actives have a fitted effect of over 55% in size
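HEK-293-derived GP2 cells expressing PTHR1 and a GloSensor cAMP reporter, 3,000/well, plated overnight, given luciferin plus IBMX (each 0.5 mM as added) for 1 h at 37 °C, then compound for 1 h at 37 °C. Luminescence was read after 15 min at room temperature.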
PINK1 expr mod = modulators of PINK1 expression. PINK1 immunofluorescence, high-content cytometry, 24 h. Potency, µM (series often up to 76.6 µM), inactives show at the top dose activation (PINK1 increase), hits mostly activators. 410,000 compounds, 0.2% hits. AID 624263; active = well fitted activation curve with a large enough effect; inconclusive = small, poorly fitted or top-dose-only effect; cell line not stated here; note: potency is the fitted concentration of half-maximal effect; % of control where 0% means no effect; nearly all actives have a fitted effect of over 65% in size
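Stable cell line treated 24 h with compounds at 5 concentrations (CCCP controls), then fixed and immunostained for PINK1 plus nuclear and cell stains; PINK1 immunofluorescence quantified by laser-scanning microplate cytometry.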
miR-21 FLuc = miR-21 reporter, rising signal; HeLa miR-21 FLuc reporter, luciferase, 48 h; Potency, µM (titrated, usually from 38.3 µM), without a hit: top-dose reporter change, positive = more light; AID 2288; 340,000 tested, under 10 active; active = well fitted rising curve with a large enough effect; inconclusive = small, poorly fitted or top-dose-only effect; inactive = no such curve, though single readings can be large or run the other way;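 further: % of control where 0% means no effect; miR-21 action dims this reporter so a rising signal means less miR-21 action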
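HeLa miR-21-FLuc reporter line, endogenous miR-21; 2000 cells/well in DMEM/10% FBS; compound titration up to ~40uM final, 48 h, 37 degree Celsius; luciferase detection reagent, 15 min lysis, CCD luminescence.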
Giardia killer = kills Giardia lamblia | Giardia lamblia trophozoite viability | activity change, % at 7.66 µM, hits read low | 340,000 compounds, 0.15% hits | AID 540267; in the data active = activity change below about -80%; inconclusive = between about -30% and that limit;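 note: parasites exposed to compound for two days anaerobically before the ATP read; % is set by controls: 0 for no effect and ±100 for the full control effect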
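Each well holds 100 Giardia trophozoites and compound. After two days (48 hrs) at 37 deg C in anaerobic conditions, ATP is quantified by luminescence.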
12-LOX inh = blocks human arachidonate 12S-lipoxygenase. P18054. 580,000 compounds, 1.1% hits. purified 12hLO, xylenol orange hydroperoxide absorbance. Potency, µM (top dose mostly 108 µM), for the others: top-dose activity change, negative = inhibition, usual class: inhibitors; note: potency is the fitted concentration of half-maximal effect; % is set by controls: 0 for no effect and ±100 for the full control effect
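Purified human 12hLO (150 nM final) in 25 mM Hepes, 0.01% Triton X-100, pH 7.0 was preincubated 15 min at room temperature with compound. Then 40 uM arachidonic acid was added, 30 min. Hydroperoxide was read by Fe-XO absorbance ratio 573/405 nm.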
ERG Ets-DNA blk = ERG Ets/DNA interaction inhibition; P11308; fluorescence polarization, His-ERG Ets domain / labelled DNA; Potency, µM (doses to about 76.9 µM), for the others: at the highest dose FP activity, negative = inhibition, usual class: inhibitors; 370,000 compounds, 0.028% hits; active = well fitted inhibition curve with a large enough effect in the polarisation, with a control signal flat; inconclusive = small, poorly fitted or top-dose-only effect, or effect the other way, or a change in a side signal; inactive = no such curve, though single readings can be large or run the other way; the % refers to the polarisation;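 note: polarization taken with two DNA probes labelled with fluorescein and Texas red; potency is the fitted concentration of half-maximal effect; % of control where 0% means no effect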
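His-tagged ERG Ets domain (1 uM in the protein solution; 300mM KCl, 50mM Tris-HCl, 1mM EDTA, 1mM DTT, pH 7.5) received compound, then a probe mix of 5 nM fluorescein-DNA and 100nM Texas-615-DNA. Fluorescence polarization was read for both dyes.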
* marks the source's active call; other numbers are inactive results; i = inactive; ? = inconclusive; · = no result given; ! = not confirmed by another sample; [ ] = another dose, or the depositor's remark. Unless noted, calls come from the whole dose curve; as a rule, active = well fitted curve in the direction sought with a large enough effect; inconclusive = small, poorly fitted or top-dose-only effect, or another doubt; inactive = no such curve, though single readings can be large; an effect the other way counts as inactive or inconclusive.

compound | PTHR1 ag | PINK1 expr mod | miR-21 FLuc | Giardia killer | 12-LOX inh | ERG Ets-DNA blk
Cc1cc(NC(=S)Nc2ccc(C)c(Cl)c2)n[nH]1 | -19.5% | 2.5% | -85.1% | 14.5 | 14.1µM* | -1.5%
CC(=O)C1=C(O)C(CSCc2ccccc2)N(C)C1=O (stereo not given) | 24.0% | -3.6% | · | 11.6 | 10µM* | 4.1%
O=C(CSCc1ccccc1)NC1CCSC1=O (stereo not given) | -24.0% | -3.5%[38.3 µM] | -2.4% | 12.0 | ? | 0.0%
CCn1cc(C(=O)OCC(=O)c2cc(C)n(-c3ccc(OC(F)F)cc3)c2C)c(=O)c2ccc(C)nc21 | -20.5% | 24.8% | -0.6% | -1.7 | -23.5% | -1.6%
COC[C@@H]1CN(Cc2cccc(OC)c2)C[C@H]1C(=O)NC1CC1 | · | · | · | · | 42.4% | ·
COc1ccc(CNC(=O)c2ccc(C)cc2)cc1 | · | · | · | -21.7 | -13.1% | ·
CCCC1=[N+](CC)CCn2c(C)ccc21 | -3.0%[57.5 µM] | · | -1.3% | 0.0 | 20µM* | ·
CCCC1=[N+](CC(=O)c2ccccc2)CCn2c(C)ccc21 | i | 3.5% | 9.6% | -3.0 | -16.9% | -2.4%
O=C(Cn1cnc2ccccc2c1=O)N1CCN(c2ccc(F)cc2)CC1 | i | 1.1% | 0.9% | -10.0 | -6.7% | 1.5%
O=C(Nc1ccc(N2CCCCC2)cc1)c1ccccn1 | -21.4% | 2.2% | ? | -102.2* | · | 2.7%
O=C(Nc1ccc(N2CCCCCC2)cc1)c1ccccc1Cl | -24.9% | 0.2% | -30.2% | 5.9 | -64.3% | 0.9%
CC[N+](CC)(CC)CCOc1ccc(/C=C/c2ccccc2)cc1 | i | ? | · | -20.1 | 50.1µM*! | 0.5%
CCn1cc(-c2ccncc2)cc1C(=O)NCc1ccc(Cl)cc1 | · | · | · | · | 5.7% | ·
O=[N+]([O-])c1ccc(N2CCN(C(=S)NCc3ccc(Cl)cc3)CC2)cc1 | -39.3% | 4.2% | 6.5% | 14.6 | -19.9% | 7.6%
O=[N+]([O-])c1ccc(CN2CCN(c3ccc(Cl)cc3)CC2)o1 | -36.5% | 3.0% | 1.8% | -93.7* | ? | 6.7%
CCCN1C(=O)/C(=C/c2ccc(C)o2)SC1=Nc1ccc(OC)cc1 | i | 7.5% | -4.5% | 9.5 | 12.6µM* | 4.0%
CCN1C(=O)/C(=C\c2ccc(-c3cccc(C(=O)OC)c3)o2)SC1=Nc1ccc(C(=O)O)cc1 | · | · | -2.7% | · | 50.1µM* | ·
Cc1ccc2[nH]cc(/C=C/c3cc[n+](C)cc3)c2c1 | -9.0% | 3.55µM* | ? | -3.8 | ? | 1.7%
CC[n+]1ccc(/C=C/c2c[nH]c3ccccc23)cc1 | i | 25.1µM* | 27.3% | 11.0 | ? | 5.4%
COc1ccc2c(/C=C/c3cc[n+](C)cc3)c[nH]c2c1 | i | ? | ? | -16.2 | ? | 16.9%

Two of the compounds above, as labelled records.
SMILES: O=[N+]([O-])c1ccc(N2CCN(C(=S)NCc3ccc(Cl)cc3)CC2)cc1
  PTHR1 ag: -39.3%
  PINK1 expr mod: 4.2%
  miR-21 FLuc: 6.5%
  Giardia killer: 14.6
  12-LOX inh: -19.9%
  ERG Ets-DNA blk: 7.6%

SMILES: CC(=O)C1=C(O)C(CSCc2ccccc2)N(C)C1=O (stereo not given)
  PTHR1 ag: 24.0%
  PINK1 expr mod: -3.6%
  miR-21 FLuc: ·
  Giardia killer: 11.6
  12-LOX inh: 10µM*
  ERG Ets-DNA blk: 4.1%

Continued:
compound | PTHR1 ag | PINK1 expr mod | miR-21 FLuc | Giardia killer | 12-LOX inh | ERG Ets-DNA blk
N#Cc1ccc(CN2C=NS(=O)(=O)c3ccccc32)cc1 | i | -0.5% | 0.4% | 7.3 | 36.1% | 1.9%
CC1CN(C(=O)COC(=O)c2ccc(Cl)c(S(=O)(=O)N3CCCCC3)c2)CC(C)O1 (stereo not given) | -12.6% | -0.8% | 2.7% | 7.9 | -6.5% | 2.0%
O=c1c2c(-c3ccc([N+](=O)[O-])cc3)ccnc2[nH]n1-c1ccccc1 | -5.8% | 1.5% | -4.7% | -30.0 | 25.5% | -6.5%
O=C(O)C(c1ccccc1)N1C(=O)/C(=C\c2ccc(-c3ccc(Br)cc3)o2)SC1=S (stereo not given) | -8.5% | -0.4% | -0.6% | -22.9 | 6.31µM* | -4.2%
C=CCN1C(=O)/C(=C/c2ccsc2)SC1=S | -12.7% | 0.4% | -2.8% | 6.2 | 11.1% | 5.3%
C=CCN1C(=O)/C(=C/c2ccc(-c3ccc(F)cc3)o2)SC1=S | -10.3% | 0.7% | -2.6% | 7.6 | 44.7µM* | 25.5%
CCOC(=O)c1ccc(N2CN(CCc3ccccc3)CNC2=S)cc1 | -11.2% | -0.5% | 0.1% | -3.2 | 44.7µM* | 9.6%
COc1cc(C2NC(=O)C(C#N)=C(S)N2c2ccccc2)ccc1OC(C)C (stereo not given) | i | -1.2% | -1.7% | -1.6 | 14.1µM* | -2.5%
COc1ccc(N2C(S)=C(C#N)C(=O)NC2c2ccco2)cc1 (stereo not given) | -60.0% | 2.6% | -2.2% | 48.2 | 44.7µM* | 13.3%
Cn1c(Cn2c(=O)sc3ccccc32)nnc1SCC(=O)NC1CCCC1 | 5.1% | -0.1% | -1.4% | 0.6 | 439.4% | 0.5%
Cc1c(N=Nc2c(-c3ccc([N+](=O)[O-])cc3)[nH]n(C(N)=S)c2=O)cccc1[N+](=O)[O-] | -21.6% | 3.16µM* | -3.3% | -15.8 | ? | -1.0%
Cc1ccc(S(=O)(=O)/N=C(/Nc2ccc([N+](=O)[O-])cc2[N+](=O)[O-])c2ccccc2)cc1 | -44.2% | 35.5µM* | · | ? | ? | -7.8%
Cc1ccc(S(=O)(=O)/N=C(/Nc2ccc([N+](=O)[O-])cc2)c2ccccc2)cc1 | ? | 8.6% | -3.6% | 0.4 | 44.7µM* | 9.3%
CSc1ccc(S(=O)(=O)NCC(=O)OCCOc2ccccc2)cc1[N+](=O)[O-] | i | 13.1% | · | 9.1 | -26.7% | -2.7%
CCOC(=O)c1oc2ccc(S(=O)(=O)NCC3Cn4cccc4C(=O)N3C)cc2c1C (stereo not given) | · | · | · | · | 35.5µM* | ·
COc1cccc(S(=O)(=O)NCC2Cn3cccc3C(=O)N2C)c1 (stereo not given) | · | · | · | · | 17.1% | ·
O=C1NC(=Nc2ccccc2Cl)S/C1=C\c1cc([N+](=O)[O-])ccc1O | -0.8% | 2.4% | -4.6% | -7.8 | 31.6µM* | 25.5%
Cc1ccc(S(=O)(=O)/N=C2/NC(=O)/C(=C/c3cc([N+](=O)[O-])ccc3O)S2)cc1 | ? | -0.7% | -1.3% | 8.8 | 10µM* | 34.7%
COc1cc(/C=C2\S/C(=N/S(=O)(=O)c3ccc(C)cc3)NC2=O)c([N+](=O)[O-])cc1OC | i | · | -50.8% | 6.8 | ? | 3.6%
COc1cccc(N=C2NC(=O)/C(=C/c3cc([N+](=O)[O-])ccc3O)S2)c1 | -10.9% | 0.5% | 1.4% | -1.0 | ? | 22.3%
O=C(Nc1ccc(F)cc1F)c1cc(-c2ccc[nH]2)n[nH]1 | · | · | · | · | 11.2µM* | ·
O=C(Nc1ccc(OC(F)(F)F)cc1)c1cc(-c2ccc[nH]2)n[nH]1 | · | · | · | · | 15.8µM* | ·
CCc1cccc(NC(=O)c2cc(-c3ccc[nH]3)n[nH]2)c1 | · | · | · | · | 22.4µM* | ·
CCc1ccc(NC(=O)c2cc(-c3ccc[nH]3)n[nH]2)cc1 | · | · | · | · | 28.2µM* | ·
CCOc1ccc(NC(=O)c2cc(-c3ccc[nH]3)n[nH]2)cc1 | · | · | · | · | -22.0% | ·
Nc1ncnc(Nc2ccccc2C(F)(F)F)n1 | -8.4%[57.5 µM] | 1.1% | -13.7% | 3.7 | ? | -4.9%

Ordered by value in 12-LOX inh (rising): three of the compounds above.
compound | 12-LOX inh
O=C(Nc1ccc(OC(F)(F)F)cc1)c1cc(-c2ccc[nH]2)n[nH]1 | 15.8µM*
CCc1cccc(NC(=O)c2cc(-c3ccc[nH]3)n[nH]2)c1 | 22.4µM*
CCc1ccc(NC(=O)c2cc(-c3ccc[nH]3)n[nH]2)cc1 | 28.2µM*
